Literature values, collected in paper PMC3780559 (MedChemComm, 2013).

Test system: STAT3
Details: cited from earlier work

Cc1ccc(S(=O)(=O)OCC(=O)Nc2ccc(C(=O)O)c(O)c2)cc1 [Compound S3I-201]
STAT3:STAT3 complex formation and STAT3 DNA-binding and transcriptional activities: inhibited
